The chains behind the UniProt entries cited, without tags or fusion partners.
UniProt P08908, whole entry: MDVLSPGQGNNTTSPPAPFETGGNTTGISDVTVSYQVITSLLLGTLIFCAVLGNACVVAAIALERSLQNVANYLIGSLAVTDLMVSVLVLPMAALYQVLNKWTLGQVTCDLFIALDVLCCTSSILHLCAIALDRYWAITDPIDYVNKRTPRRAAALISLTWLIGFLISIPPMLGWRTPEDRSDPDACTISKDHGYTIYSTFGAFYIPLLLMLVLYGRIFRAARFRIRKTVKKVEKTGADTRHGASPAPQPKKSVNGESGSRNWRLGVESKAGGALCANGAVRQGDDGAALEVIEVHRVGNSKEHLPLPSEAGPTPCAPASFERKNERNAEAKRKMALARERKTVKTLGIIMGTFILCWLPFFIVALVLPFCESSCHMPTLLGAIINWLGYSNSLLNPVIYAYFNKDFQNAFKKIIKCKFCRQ
UniProt P34969, whole entry: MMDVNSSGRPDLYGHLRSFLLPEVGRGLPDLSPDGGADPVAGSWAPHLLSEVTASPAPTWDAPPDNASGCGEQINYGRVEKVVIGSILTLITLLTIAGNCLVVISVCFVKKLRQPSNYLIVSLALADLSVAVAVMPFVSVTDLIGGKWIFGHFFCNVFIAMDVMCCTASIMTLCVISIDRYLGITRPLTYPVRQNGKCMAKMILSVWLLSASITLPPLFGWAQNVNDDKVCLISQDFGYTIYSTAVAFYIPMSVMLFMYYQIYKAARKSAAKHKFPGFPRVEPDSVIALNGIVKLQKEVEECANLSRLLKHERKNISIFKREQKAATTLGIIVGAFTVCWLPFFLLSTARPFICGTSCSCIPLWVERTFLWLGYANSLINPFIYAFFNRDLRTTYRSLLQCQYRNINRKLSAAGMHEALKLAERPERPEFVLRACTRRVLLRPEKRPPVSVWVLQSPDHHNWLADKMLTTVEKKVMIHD
UniProt P31645, whole entry, looked up: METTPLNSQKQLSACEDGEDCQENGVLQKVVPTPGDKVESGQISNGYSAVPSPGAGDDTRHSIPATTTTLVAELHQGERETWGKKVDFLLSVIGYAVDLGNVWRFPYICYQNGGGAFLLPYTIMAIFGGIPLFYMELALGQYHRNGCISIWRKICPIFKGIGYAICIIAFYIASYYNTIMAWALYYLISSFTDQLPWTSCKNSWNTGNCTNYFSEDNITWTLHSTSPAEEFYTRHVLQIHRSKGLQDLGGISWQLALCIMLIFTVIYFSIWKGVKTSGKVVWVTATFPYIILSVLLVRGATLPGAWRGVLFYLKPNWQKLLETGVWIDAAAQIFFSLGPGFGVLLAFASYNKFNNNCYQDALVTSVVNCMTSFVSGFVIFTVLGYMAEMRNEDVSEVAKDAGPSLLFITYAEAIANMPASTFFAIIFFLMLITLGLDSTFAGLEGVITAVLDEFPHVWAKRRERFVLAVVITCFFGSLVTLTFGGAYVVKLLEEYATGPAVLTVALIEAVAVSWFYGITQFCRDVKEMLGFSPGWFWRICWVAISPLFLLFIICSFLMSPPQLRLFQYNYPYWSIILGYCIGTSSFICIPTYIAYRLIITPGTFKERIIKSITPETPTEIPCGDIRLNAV

According to ChEMBL document CHEMBL5584220, “Design, synthesis, and biological evaluation of aralkyl piperazine and piperidine derivatives targeting SSRI/5-HT1A/5-HT7” (Bioorg Med Chem, 2024):

Key:
[1] = biological target: 5-hydroxytryptamine receptor 1A (Homo sapiens, UniProt P08908); type: cell membranes; conditions: HEK293, Membrane, dose 1.0 µM, time 1.0 hrs
[2] = biological target: 5-hydroxytryptamine receptor 7 (Homo sapiens, UniProt P34969); type: cell membranes; conditions: HEK293, Membrane, dose 1.0 µM, time 1.0 hrs
[3] = biological target: Sodium-dependent serotonin transporter (Homo sapiens, UniProt P31645); experiment: Inhibition of human SERT expressed in HEK293 cells assessed as reduction in 5-HT reuptake at 1 uM incubated for 30 mins by fluorescent dye uptake assay relative to control; type: cell-based
Mus musculus [4] = experiment: Antidepressant activity in male ICR mouse assessed as reduction in immobility time at 80 mg/kg, po administered for 1 hrs by forced swim test relative to control; type: functional; design: scale not given: the % may be the effect or the level left
Mus musculus [5] = experiment: Antidepressant activity in male ICR mouse assessed as reduction in immobility time at 40 mg/kg, po administered for 1 hrs by forced swim test relative to control; type: functional; design: scale not given: the % may be the effect or the level left
Mus musculus [6] = experiment: Antidepressant activity in male ICR mouse assessed as reduction in immobility time at 20 mg/kg, po administered for 1 hrs by forced swim test relative to control; type: functional; design: scale not given: the % may be the effect or the level left

Row | Compound | inhibition [1] [%] | inhibition [2] [%] | inhibition [3] [%] | Activity (Mus musculus [4]) [%] | Activity (Mus musculus [5]) [%] | Activity (Mus musculus [6]) [%]
1 | CS(=O)(=O)c1ccccc1N1CCN(CCCc2c[nH]c3ccc(F)cc23)CC1 | 91.2 | 77.4 | 99.8 | – | – | –
2 | Fc1ccc(C23CCN(CCCc4c[nH]c5ccc(F)cc45)CC2O3)c(-c2ccccc2)c1 (configuration not stated) | 97.3 | 72.2 | 95.3 | – | – | –
3 | OC1(c2ccc(F)cc2-c2ccccc2)CCN(CCCc2c[nH]c3ccc(F)cc23)CC1 | 100 | 69.7 | 99.5 | – | – | –
4 | CCSc1ccccc1N1CCN(CCCc2c[nH]c3ccc(F)cc23)CC1 | 100 | 97.5 | 102 | – | – | –
5 | CSc1ccccc1N1CCN(CCCc2c[nH]c3ccc(C#N)cc23)CC1 | 99.1 | 98.5 | 101 | – | – | –
6 | CSc1ccccc1N1CCN(CCCc2c[nH]c3ccc(F)cc23)CC1.Cl | – | – | – | 27 | 20 | 13
7 | Fc1ccc(C2=CCN(CCCc3c[nH]c4ccc(F)cc34)CC2)c(-c2ccccc2)c1 | 97.8 | 96 | 97.6 | – | – | –
8 | CSc1ccccc1N1CCN(CCCCCc2c[nH]c3ccc(F)cc23)CC1 | 99.4 | 97.7 | 101 | – | – | –
9 | OC(CCN1CCC(c2ccc(F)cc2-c2ccccc2)CC1)c1c[nH]c2ccc(F)cc12 (configuration not stated) | 92 | 95.9 | 70.8 | – | – | –
10 | CSc1ccccc1C1=CCN(CCCc2c[nH]c3ccc(F)cc23)CC1 | 98.9 | 88.3 | 103 | – | – | –
11 | C[S+]([O-])c1ccccc1N1CCN(CCCc2c[nH]c3ccc(F)cc23)CC1 (configuration not stated) | 95.9 | 77 | 100 | – | – | –
12 | CSc1ccccc1C1CCN(CCCc2c[nH]c3ccc(F)cc23)CC1 | 99.6 | 92.6 | 102 | – | – | –
13 | CSc1ccccc1N1CCN(CCCCc2c[nH]c3ccc(F)cc23)CC1 | 100 | 97.3 | 101 | – | – | –
14 | CSc1ccccc1N1CCN(CCC(=O)c2c[nH]c3ccc(F)cc23)CC1 | 99.3 | 96.3 | 83.8 | – | – | –
